Drawing on ChEMBL document CHEMBL4715823, “Homogeneous Assay for Target Engagement Utilizing Bioluminescent Thermal Shift” (ACS Med Chem Lett, 2018), this text covers Tm for 1 compound.

Sequences of proteins named here, by UniProt entry; tags and fusion partners are left off.
UniProt Q16539, whole entry: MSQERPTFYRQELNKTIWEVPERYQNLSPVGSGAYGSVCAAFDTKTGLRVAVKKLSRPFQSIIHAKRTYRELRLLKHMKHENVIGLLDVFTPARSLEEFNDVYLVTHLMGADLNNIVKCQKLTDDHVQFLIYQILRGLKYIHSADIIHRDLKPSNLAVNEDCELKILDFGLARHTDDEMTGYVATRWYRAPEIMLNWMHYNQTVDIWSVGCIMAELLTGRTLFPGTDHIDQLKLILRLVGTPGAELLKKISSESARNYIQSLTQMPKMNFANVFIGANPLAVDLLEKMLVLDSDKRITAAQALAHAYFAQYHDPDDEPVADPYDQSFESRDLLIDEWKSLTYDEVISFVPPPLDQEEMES

This assay deals with Mitogen-activated protein kinase 14 (Homo sapiens) (UniProt Q16539). The note with it: HeLa, dose 50.0 µM.

For `Cn1c(NC[C@@H](N)Cc2ccccc2)nc(-c2ccncc2)c(-c2ccc3ccccc3c2)c1=O`, the Tm was 59 °C.
